Measurements from PubChem BioAssay AID1347056 (Sanford-Burnham Center for Chemical Genomics, 2019).
Only a part is listed here, and it is no random draw. Activity calls are given as the source filed them.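 How the source made its calls: active means compounds whose plate-normalised and pattern-corrected inhibition of the luciferase reporter signal at the single screening dose is 50% or more; inactive means the rest.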

assay: TROY pathway blockers in reporter cells – Q293 LMP1-TROYcd cells, NF-kB luciferase, uHTS, primary screen (AID 1347056); details: 4 h, at 10 µM, hits give high values

Row | SMILES | inhibition
1 | CC1=C2N=C(C=C3N=C(C(C)=C4[N-][C@@](C)([C@@H]5N=C1[C@](C)(CCC(=O)NC[C@@H](C)OP(=O)([O-])O[C@H]1[C@@H](O)[C@@H](n6cnc7cc(C)c(C)cc76)O[C@@H]1CO)[C@H]5CC(N)=O)[C@@](C)(CC(N)=O)[C@@H]4CCC(N)=O)[C@@](C)(CC(N)=O)[C@@H]3CCC(N)=O)C(C)(C)[C@@H]2CCC(N)=O.[C-]#N.[Co+3] | inactive: -14.7%
